This is an account of results in article PMC6351631, “Biochemical and Proteomic Characterization of Recombinant Human α/β Hydrolase Domain 6” (Scientific Reports, 2019).

By UniProt entry, the sequences of proteins in these tests, tags left out.
UniProt Q99685, whole entry: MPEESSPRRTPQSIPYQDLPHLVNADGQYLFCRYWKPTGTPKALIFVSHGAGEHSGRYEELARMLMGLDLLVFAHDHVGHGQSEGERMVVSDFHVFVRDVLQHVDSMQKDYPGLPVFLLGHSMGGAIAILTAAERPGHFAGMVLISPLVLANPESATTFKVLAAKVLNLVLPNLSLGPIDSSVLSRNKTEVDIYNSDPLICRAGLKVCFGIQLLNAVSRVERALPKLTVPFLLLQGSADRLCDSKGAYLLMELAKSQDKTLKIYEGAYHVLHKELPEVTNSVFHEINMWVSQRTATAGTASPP
UniProt O00519, whole entry: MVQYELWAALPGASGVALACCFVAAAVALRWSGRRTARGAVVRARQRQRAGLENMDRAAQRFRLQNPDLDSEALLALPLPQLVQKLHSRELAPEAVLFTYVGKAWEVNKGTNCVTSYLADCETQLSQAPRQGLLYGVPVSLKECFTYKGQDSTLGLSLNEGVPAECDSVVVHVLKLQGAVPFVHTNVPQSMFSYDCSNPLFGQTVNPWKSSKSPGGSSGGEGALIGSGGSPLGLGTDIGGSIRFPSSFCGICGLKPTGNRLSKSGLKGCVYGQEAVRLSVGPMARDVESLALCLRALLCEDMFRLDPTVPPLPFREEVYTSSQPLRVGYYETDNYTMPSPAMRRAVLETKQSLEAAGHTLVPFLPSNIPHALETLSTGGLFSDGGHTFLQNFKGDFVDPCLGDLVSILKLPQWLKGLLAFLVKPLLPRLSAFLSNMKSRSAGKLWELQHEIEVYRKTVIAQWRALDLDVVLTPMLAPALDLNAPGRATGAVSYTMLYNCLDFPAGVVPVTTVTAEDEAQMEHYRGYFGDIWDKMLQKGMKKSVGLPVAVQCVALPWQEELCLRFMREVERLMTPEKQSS
UniProt Q9BV23, whole entry: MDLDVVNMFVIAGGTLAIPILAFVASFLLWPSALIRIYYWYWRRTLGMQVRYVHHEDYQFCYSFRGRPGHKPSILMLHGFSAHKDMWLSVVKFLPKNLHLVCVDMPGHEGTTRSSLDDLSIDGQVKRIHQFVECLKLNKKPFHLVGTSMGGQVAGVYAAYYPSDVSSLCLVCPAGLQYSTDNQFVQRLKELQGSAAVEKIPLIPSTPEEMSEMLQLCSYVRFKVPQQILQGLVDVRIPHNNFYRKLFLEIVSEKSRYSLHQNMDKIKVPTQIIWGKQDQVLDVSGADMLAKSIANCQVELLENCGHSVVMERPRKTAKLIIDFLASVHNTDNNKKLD

pIC50: −log10 of the molar value.

The target in assay [1] is hMGL (monoacylglycerol lipase) (Homo sapiens, UniProt Q99685). In words: fluorometric inhibition assay (data not presented).
Another assay deals with hFAAH (Homo sapiens, UniProt O00519). In words: fluorometric inhibition assay (data not presented).
The target in the next assay is hABHD6 (Homo sapiens, UniProt Q9BV23).

For FP-rhodamine, the negative-log IC50 (pIC50) (usually −log10 of the IC50, conventionally taken in molar units) was 6.55 in assay [1], 6.80 at hFAAH and 5.52 on hABHD6.
